This assay has as its target FEM1B-EB-EC ternary complex (human, UniProt Q9UK73 1-627; Q15370 1-118; Q15369 17-112). The assay is described as follows: ITC.
GGGSGGGSDGWIRVSSDNVADLHEKYSGSTA [PSMB5 C-degron P-1A, SUMO fusion] registered a Kd of 10.6 µM.
KKHSLDLLSKERLRHLSP [SUMO-(GGGS)2-CCDC89 352-374 Δ5] gave a Kd of 2.1 µM.
Molecule KKHSLDLLSKERELLRHLSP [SUMO-(GGGS)2-CCDC89 352-374 Δ3] yielded a Kd of 1.1 µM.
GGGSGGGSKKHSLDLLSKERELNGKLRHLSL [CCDC89 C-degron P-1L, SUMO fusion] yielded a Kd of 6.7 µM.
The molecule GGGSGGGSKKHSLDLLSKERELNGKLRHLSA [CCDC89 C-degron P-1A, SUMO fusion] yielded a Kd of 46 µM.
Next, GGGSGGGSKKHSLDLLSKERELNGKLRHLSQ [CCDC89 C-degron P-1Q, SUMO fusion]: 6.7 µM.
